# scFv variants of Ab-14 (light chain) against a SARS-CoV-2 spike peptide

Reference: Engelhart et al. 2022, doi:10.1038/s41597-022-01779-4. File: FLAb, binding data.

Antigen: PDVDLGDISGINAS, a 14-residue peptide of the SARS-CoV-2 spike HR2 region.

The variants keep the heavy chain, the linker and the frameworks of Ab-14 (scFv order VH, a 15-residue (Gly4Ser)3 linker, VL).
VH: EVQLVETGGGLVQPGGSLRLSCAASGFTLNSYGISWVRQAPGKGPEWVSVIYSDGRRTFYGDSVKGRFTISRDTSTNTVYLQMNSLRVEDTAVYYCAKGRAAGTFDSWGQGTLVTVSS
VL: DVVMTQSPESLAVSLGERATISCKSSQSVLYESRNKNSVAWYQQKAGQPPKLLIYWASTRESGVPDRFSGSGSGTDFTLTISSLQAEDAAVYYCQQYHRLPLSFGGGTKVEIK

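Phage display of a naive human antibody library on the peptide gave the parent. Library AAYL50 holds single substitutions and randomly drawn double and triple substitutions in the CDRs. In AlphaSeq, yeast of one mating type display the scFv and yeast of the other type display the target. Mating (16 h, 30 °C) was followed by selection of diploids and sequencing of their barcodes. A regression on co-assayed BCL2-family reference pairs converts the normalised counts of each replicate to an apparent Kd. Each pool was mated in three replicate cultures.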

The whole VL of each variant is written out.
Numbers give log10(Kd / nM), so 0 is 1 nM and 3 is 1 µM. Smaller is tighter.
A mean of the replicates is given; it leaves out those without a signal.
Where no diploid with the target was found in that replicate, the entry reads "ND": below detection, most likely a poor binder, though not proof of it.
Nonspecific signal, from three strains lacking the peptide, appeared in 18% of pairings of library AAYL50, centred on 4.19 (5% of these signals below 2.99); values are not corrected for it. The control count says in how many pairings with the empty strains this scFv gave a signal.

Variant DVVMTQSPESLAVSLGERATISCKSSQSVLYESRNKNSVAWYQQKAGQPPKLLIYWASTREKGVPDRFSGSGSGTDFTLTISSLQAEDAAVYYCQQYHRFPLSFGGGTKVEIK gave 4.89, ND, ND (controls 3 of 9).
Variant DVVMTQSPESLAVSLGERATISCKSSQSVLYESRNKTYVAWYQQKAGQPPKLLIYWASTRESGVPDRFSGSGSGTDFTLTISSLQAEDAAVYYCQQYHRLPLSFGGGTKVEIK gave ND, 3.99, 5.70 (mean 4.85; controls 2 of 9).
Variant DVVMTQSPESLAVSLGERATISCKSSQSQLYESCNKNSVAWYQQKAGQPPKLLIYWASTRESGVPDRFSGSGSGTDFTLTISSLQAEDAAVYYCQQYHRLPLSFGGGTKVEIK gave 1.27, 1.39, 1.25 (mean 1.30; controls 4 of 9).
Variant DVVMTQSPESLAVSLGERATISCKSSQSVLDESRNKNSVAWYQQKAGQPPKLLIYWASCRESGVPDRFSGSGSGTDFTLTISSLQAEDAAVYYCQQYHRLPRSFGGGTKVEIK gave 0.53, 0.74, 0.67 (mean 0.65; controls 1 of 9).
Variant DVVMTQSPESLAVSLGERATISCKSSNSVLYESRNKNSVAWYQQKAGQPPKLLIYWASTNESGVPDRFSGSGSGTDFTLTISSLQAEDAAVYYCPQYHRLPLSFGGGTKVEIK gave ND, ND, ND (controls 2 of 9).
Variant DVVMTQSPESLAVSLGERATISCKPSQSPLYESRNKNSVAWYQQKAGQPPKLLIYWAETRESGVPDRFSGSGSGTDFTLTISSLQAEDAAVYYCQQYHRLPLSFGGGTKVEIK gave 2.79, 2.72, 4.12 (mean 3.21; controls 3 of 9).
Variant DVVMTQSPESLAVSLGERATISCKSSQSVLYEGRNKNSVAWYQQKAGQPPKLLIYWASTRYSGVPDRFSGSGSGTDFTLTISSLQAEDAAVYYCQQKHRLPLSFGGGTKVEIK gave 4.85, 4.96, ND (mean 4.91; controls 5 of 9).
Variant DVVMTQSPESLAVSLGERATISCKSSQSVLLESRNKNSVTWYQQKAGQPPKLLIYWMSTRESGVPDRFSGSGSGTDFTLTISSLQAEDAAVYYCQQYHRLPLSFGGGTKVEIK gave ND, ND, 3.73 (controls 3 of 9).
Variant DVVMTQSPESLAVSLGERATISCKSSQSVLYESRNKNSVAWYQQKAGQPPKLLIYWASTMESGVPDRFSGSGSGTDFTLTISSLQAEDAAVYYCQQYHRDPCSFGGGTKVEIK gave ND, ND, ND (controls 1 of 9).
Variant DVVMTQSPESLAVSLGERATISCKSLQSVLYESRNKNVVAWYQQKAGQPPKLLIYWASTRESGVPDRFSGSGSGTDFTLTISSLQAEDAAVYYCQKYHRLPLSFGGGTKVEIK gave ND, ND, ND (controls 0 of 9).
Variant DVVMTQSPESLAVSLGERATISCKSSWSVLYESRNKNVVAWYQQKAGQPPKLLIYWASTRESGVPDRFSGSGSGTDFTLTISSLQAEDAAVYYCQQYHRLRLSFGGGTKVEIK gave ND, ND, ND (controls 1 of 9).
Variant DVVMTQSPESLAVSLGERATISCDSSQSVLYESRIKNSVAWYQQKAGQPPKLLIYWASTRESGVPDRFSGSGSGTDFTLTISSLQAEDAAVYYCQQYFRLPLSFGGGTKVEIK gave 2.54, 1.60, 1.51 (mean 1.89; controls 0 of 9).
Variant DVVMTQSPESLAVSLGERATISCKSSQSVLYESRNKNLVAWYQQKAGQPPKLLIYWYSTRESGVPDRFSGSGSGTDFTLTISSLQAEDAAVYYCLQYHRLPLSFGGGTKVEIK gave 3.72, ND, ND (controls 1 of 9).
Variant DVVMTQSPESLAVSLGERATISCKSIQSHLVESRNKNSVAWYQQKAGQPPKLLIYWASTRESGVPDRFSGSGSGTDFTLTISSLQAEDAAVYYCQQYHRLPLSFGGGTKVEIK gave 0.90, 1.13, 1.04 (mean 1.03; controls 1 of 9).
Variant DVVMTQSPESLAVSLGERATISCKSSQSVVYESRNKNSVAWYQQKAGQPPKLLIYWASTRESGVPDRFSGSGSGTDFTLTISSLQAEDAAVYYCQQNHRLPLSFGGGTKVEIK gave 1.87, 1.43, 1.85 (mean 1.72; controls 2 of 9).
Variant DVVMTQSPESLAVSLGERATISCKSSQSVLYPSRNKNSVAWYQQKAGQPPKLLIYWASTRESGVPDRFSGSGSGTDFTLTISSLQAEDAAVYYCQQYERLPLIFGGGTKVEIK gave 2.11, 1.84, 2.12 (mean 2.02; controls 5 of 9).
Variant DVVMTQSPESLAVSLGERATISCKSSQSVLYESRNKMSVAWYQQKAGQPPKLLIYWASTRESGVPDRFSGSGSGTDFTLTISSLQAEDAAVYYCQMYHFLPLSFGGGTKVEIK gave 3.82, ND, ND (controls 4 of 9).

Excerpt, the first 2 entries:

{"VL": "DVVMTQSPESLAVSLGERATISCKSSQSVLYESRNKNSVAWYQQKAGQPPKLLIYWASTREKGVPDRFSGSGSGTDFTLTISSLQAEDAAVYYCQQYHRFPLSFGGGTKVEIK", "log10 Kd (nM) by replicate": "4.89, ND, ND", "mean, log10 nM": "4.89", "control signals": "3 of 9"}
{"VL": "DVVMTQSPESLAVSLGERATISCKSSQSVLYESRNKTYVAWYQQKAGQPPKLLIYWASTRESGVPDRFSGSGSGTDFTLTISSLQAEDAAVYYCQQYHRLPLSFGGGTKVEIK", "log10 Kd (nM) by replicate": "ND, 3.99, 5.70", "mean, log10 nM": "4.85", "control signals": "2 of 9"}